High-throughput results (PubChem)
TDP1 cell noCPT = qHTS for Inhibitors of human tyrosyl-DNA phosphodiesterase 1 (TDP1): qHTS in cells in absence of CPT. AID 686978, 2013. actives 15% (n = 420,000). DT40 Tdp1-/- hTDP1 cells, no CPT, ATP luminescence, 48 h. Potency, µM (titrated, usually from 46.2 µM), for inactives: at the highest dose activity change, negative = growth inhibition, usual class: inhibitors; note: potency is the fitted concentration of half-maximal effect; % is set by controls: 0 for no effect and ±100 for the full control effect; nearly all actives have a fitted effect of over 55% in size
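Luminescent ATP content (CellTiter-Glo) served as the growth readout. Knockout chicken DT40 cells expressing human TDP1 were exposed to compounds without camptothecin for a minimum 48 hr at 37 °C.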
TDP1 cell CPT = DT40-hTDP1 cell growth loss with CPT; chicken DT40 Tdp1-/-;hTDP1 cells + 20 nM CPT, ATP luminescence, 48 h; Potency, µM (series often up to 46.2 µM), for the others: at the highest dose activity change, negative = growth inhibition, most hits filed as inhibitors; actives 12% (n = 420,000); note: potency is the fitted concentration of half-maximal effect; % is set by controls: 0 for no effect and ±100 for the full control effect; nearly all actives have a fitted effect of over 55% in size
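Chicken DT40 Tdp1-/- cells stably complemented with human TDP1 were seeded at 400 cells/well in medium containing 20 nM camptothecin, exposed to pin-transferred compounds, and grown at 37 °C for at least 48 hr. Viability was read as ATP luminescence.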
uPA surface inh = inhibitors of cell surface uPA generation; cell surface uPA generation assay, qHTS; Potency, µM (titrated, usually from 38.3 µM), for inactives: at the highest dose activity change, negative = inhibition, actives largely listed as inhibitors; actives 0.31% (n = 330,000); AID 540303; active = well fitted inhibition curve with a large enough effect; inconclusive = small, poorly fitted or top-dose-only effect; inactive = no such curve, though single readings can be large or run the other way; tested in mouse RAW 264.7 cells; note: potency is the fitted concentration of half-maximal effect; % is set by controls: 0 for no effect and ±100 for the full control effect; nearly all actives have a fitted effect of over 55% in size
miR-21 reporter = miR-21 reporter, rising signal | HeLa miR-21 FLuc reporter, luciferase, 48 h | Potency, µM (highest dose often 38.3 µM), for inactives: at the top dose reporter change, positive = more light | 340,000 tested, under 10 active | AID 2288; active = well fitted rising curve with a large enough effect; inconclusive = small, poorly fitted or top-dose-only effect; inactive = no such curve, though single readings can be large or run the other way;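 further: % of control where 0% means no effect; miR-21 action dims this reporter so a rising signal means less miR-21 action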
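HeLa miR-21-FLuc reporter line, endogenous miR-21; 2000 cells/well in DMEM/10% FBS; compound titration up to ~40uM final, 48 h, 37 degree Celsius; luciferase detection reagent, 15 min lysis, CCD luminescence.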
TDP1 inh = TDP1 (human) enzyme inhibition. recombinant TDP1, AlphaScreen DNA substrate cleavage. Potency, µM (highest dose often 130 µM), for inactives: at the top dose activity change, negative = inhibition, actives largely listed as inhibitors. actives 0.28% (n = 350,000). AID 485290; note: potency is the fitted concentration of half-maximal effect; % is set by controls: 0 for no effect and ±100 for the full control effect; nearly all actives have a fitted effect of over 40% in size
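E. coli-derived human Tdp1, 1 nM final. Cpd preinc 15 min RT; substrate 15 nM final, 5 min RT; AS bead mix 10 ug/ml final, 10 min RT. Signal loss = tyrosine-FITC cleavage. No-enzyme wells = max signal.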
An asterisk follows results filed as active; ! = not active in a repeat; [ ] = dose if it differs, or a comment. A selection: hits, their analogues and other compounds. The true share with any hit is near 16%. Unless noted, calls come from the whole dose curve; as a rule, active = well fitted curve in the direction sought with a large enough effect; inconclusive = small, poorly fitted or top-dose-only effect, or another doubt; inactive = no such curve, though single readings can be large; an effect the other way counts as inactive or inconclusive.

How did CCOC(=O)C[C@H]1c2ccc(C(F)(F)F)cc2S(=O)(=O)N1C(C)(C)C do in these assays?
TDP1 cell noCPT: inconclusive; TDP1 cell CPT: 11µM*!; uPA surface inh: 10%

What do the screens show for `CCCCCCCCCCCCN1[C@@H](CC(=O)OC)c2cc(F)ccc2S1(=O)=O`?
TDP1 cell noCPT: 10µM*; TDP1 cell CPT: inconclusive; uPA surface inh: 14%

How did CCCCCCCCCCCCN1[C@@H](CC(=O)OC)c2cc(F)cc(F)c2S1(=O)=O do in these assays?
TDP1 cell noCPT: 18µM*; TDP1 cell CPT: inconclusive; uPA surface inh: 10%

How did CCOC(=O)C[C@H]1c2ccc(C(F)(F)F)cc2S(=O)(=O)N1C1CCCC1 do in these assays?
TDP1 cell noCPT: inconclusive; TDP1 cell CPT: inconclusive; uPA surface inh: -8%

What do the screens show for `O=C(Cn1nc(-c2ccc(F)cc2)ccc1=O)Nc1ccc(C(=O)NC2CC2)cc1`?
TDP1 cell noCPT: -8%; TDP1 cell CPT: 3%; uPA surface inh: -7%; miR-21 reporter: -1%; TDP1 inh: 8%

Results for COCC(=O)N(Cc1nc2ccccc2c(=O)[nH]1)Cc1cccs1 ?
TDP1 cell noCPT: inconclusive; TDP1 cell CPT: inconclusive; uPA surface inh: 2%; miR-21 reporter: -8%; TDP1 inh: 0%

How did CCCOc1ccc(C(=O)NCCN2CCOCC2)cc1 do in these assays?
TDP1 cell noCPT: -1%; TDP1 cell CPT: 4%; uPA surface inh: 3%; miR-21 reporter: -4%

Results for Cc1cccc(-c2nnc3n2N=C(c2ccccc2)CS3)c1 ?
TDP1 cell noCPT: inconclusive; TDP1 cell CPT: -23%; uPA surface inh: -11%; miR-21 reporter: 8%; TDP1 inh: 3%

How did C[n+]1c2n(c3ccccc31)N=C(c1ccccc1)CS2 do in these assays?
TDP1 cell noCPT: 2.3µM*; TDP1 cell CPT: 2.3µM*; uPA surface inh: -11%; miR-21 reporter: inconclusive; TDP1 inh: 5%

Results for C[n+]1c2n(c3ccccc31)N=C(c1ccc(Br)cc1)CS2 ?
TDP1 cell noCPT: 0.52µM*; TDP1 cell CPT: 0.65µM*; miR-21 reporter: 25%; TDP1 inh: -5%

How did C[n+]1c2n(c3ccccc31)N=C(c1ccc(-c3ccccc3)cc1)CS2 do in these assays?
TDP1 cell noCPT: 0.52µM*; TDP1 cell CPT: 0.58µM*; uPA surface inh: inconclusive; miR-21 reporter: inconclusive; TDP1 inh: 9%

Results for CC(=O)N/C(=C\c1ccccc1)C(=O)OC/C=C/c1ccccc1 ?
TDP1 cell noCPT: 17%; TDP1 cell CPT: -9%; uPA surface inh: 2%; miR-21 reporter: -9%; TDP1 inh: 1%

What do the screens show for `O=C(Nc1ccc(N2CCOCC2)c(S(=O)(=O)Nc2ccccc2Cl)c1)c1ccccc1`?
TDP1 cell noCPT: inconclusive; TDP1 cell CPT: inconclusive; uPA surface inh: -6%; TDP1 inh: 0%

What do the screens show for `COc1ccccc1NS(=O)(=O)c1cc(NC(=O)c2ccccc2C)ccc1N1CCOCC1`?
TDP1 cell noCPT: inconclusive; TDP1 cell CPT: inconclusive; uPA surface inh: 6%

What do the screens show for `O=C(Nc1ccc(N2CCOCC2)c(S(=O)(=O)Nc2ccccc2Cl)c1)c1ccc(=O)[nH]n1`?
TDP1 cell noCPT: 16µM*; TDP1 cell CPT: inconclusive; uPA surface inh: -3%

Results for COc1ccccc1NS(=O)(=O)c1cc(NC(=O)c2[nH]c(C)c(C(C)=O)c2C)ccc1N1CCOCC1 ?
TDP1 cell noCPT: 2.9µM*; TDP1 cell CPT: 7.3µM*; uPA surface inh: -10%; miR-21 reporter: 9%

What do the screens show for `COc1ccccc1NS(=O)(=O)c1cc(NC(=O)COc2ccccc2)ccc1N1CCOCC1`?
TDP1 cell noCPT: inconclusive; TDP1 cell CPT: inconclusive; uPA surface inh: -1%; TDP1 inh: 2%

What do the screens show for `COc1ccccc1NS(=O)(=O)c1cc(NC(=O)c2cc(F)c(F)c(F)c2F)ccc1N1CCOCC1`?
TDP1 cell noCPT: 16µM*; TDP1 cell CPT: inconclusive; uPA surface inh: -5%; TDP1 inh: -1%

How did COc1ccccc1NS(=O)(=O)c1cc(NC(=O)c2ccc(=O)[nH]c2)ccc1N1CCOCC1 do in these assays?
TDP1 cell noCPT: 16µM*; TDP1 cell CPT: inconclusive; uPA surface inh: 2%; miR-21 reporter: -2%; TDP1 inh: 5%

Results for Cc1ccc(NC(=O)COC(=O)Cn2nc(C)c([N+](=O)[O-])c2C)c([N+](=O)[O-])c1 ?
TDP1 cell noCPT: -1%; TDP1 cell CPT: -7%; uPA surface inh: 5%; miR-21 reporter: -2%; TDP1 inh: 0%

Results for COCC(=O)N1CCC(Oc2ccc(C(=O)NCCc3ncccc3C)cc2)CC1 ?
TDP1 cell noCPT: 11%; TDP1 cell CPT: -9%; uPA surface inh: -6%; miR-21 reporter: -8%; TDP1 inh: 2%

What do the screens show for `CC(=O)c1cccc(NC(=O)C2CC(=O)N(Cc3ccccc3)C2)c1` (stereo not drawn)?
TDP1 cell noCPT: -14%; TDP1 cell CPT: -17%; uPA surface inh: -2%; miR-21 reporter: 1%; TDP1 inh: -2%

How did Cc1ccccc1-c1nc2sc3c(c2c(=O)n1N)CCCC3 do in these assays?
TDP1 cell noCPT: -28%; TDP1 cell CPT: inconclusive; uPA surface inh: -12%; miR-21 reporter: -49%; TDP1 inh: 8%

What do the screens show for `CC(=O)N1CCc2c(sc3nc(SCC(C)C)n(-c4ccc(F)c(Cl)c4)c(=O)c23)C1`?
TDP1 cell noCPT: inconclusive; TDP1 cell CPT: inconclusive; miR-21 reporter: -3%; TDP1 inh: 1%

What do the screens show for `Cc1ccc(-n2c(SCC(=O)O)nc3sc4c(c3c2=O)CCCC4)cc1`?
TDP1 cell noCPT: 9%; TDP1 cell CPT: 9%; uPA surface inh: 1%; miR-21 reporter: -16%; TDP1 inh: 2%

What do the screens show for `CCCSc1nc2sc3c(c2c(=O)n1-c1ccc(C)cc1)CCCC3`?
TDP1 cell noCPT: 9.2µM*; TDP1 cell CPT: inconclusive; miR-21 reporter: -2%; TDP1 inh: 0%[12.3 µM]

How did CCCCSc1nnc2n(-c3cccc(C)c3)c(=O)c3c4c(sc3n12)CCCC4 do in these assays?
TDP1 cell noCPT: 16µM*; TDP1 cell CPT: inconclusive; miR-21 reporter: 1%

How did CSc1nc2sc3c(c2c(=O)n1-c1ccccc1C)CCCC3 do in these assays?
TDP1 cell noCPT: 16µM*; TDP1 cell CPT: 23µM*; miR-21 reporter: 14%; TDP1 inh: 4%

How did CCCSc1nc2sc3c(c2c(=O)n1-c1ccc(C)c(Cl)c1)CCN(C(C)=O)C3 do in these assays?
TDP1 cell noCPT: 23µM*; TDP1 cell CPT: 23µM*; miR-21 reporter: 13%; TDP1 inh: 0%

What do the screens show for `CCSc1nnc2n(-c3cccc(C)c3)c(=O)c3c4c(sc3n12)CCCC4`?
miR-21 reporter: -14%

How did CCC(C)(C)n1nnnc1CN1CCN(c2ccc(OC)cc2)CC1 do in these assays?
TDP1 cell noCPT: inconclusive; TDP1 cell CPT: -20%; uPA surface inh: 7%; miR-21 reporter: 7%; TDP1 inh: -4%

Reprinted from the entries so far for reference:
How did CSc1nc2sc3c(c2c(=O)n1-c1ccccc1C)CCCC3 do in these assays?
TDP1 cell noCPT: 16µM*; TDP1 cell CPT: 23µM*; miR-21 reporter: 14%; TDP1 inh: 4%

How did CCCSc1nc2sc3c(c2c(=O)n1-c1ccc(C)c(Cl)c1)CCN(C(C)=O)C3 do in these assays?
TDP1 cell noCPT: 23µM*; TDP1 cell CPT: 23µM*; miR-21 reporter: 13%; TDP1 inh: 0%

What do the screens show for `CCSc1nnc2n(-c3cccc(C)c3)c(=O)c3c4c(sc3n12)CCCC4`?
miR-21 reporter: -14%
